Drawing on patent US7192924B2, “Corticotropin releasing factor 2 receptor agonists” (priority 2002, dated 2007), this text covers EC50 for five compounds.

The target in one assay is T1, CRF1R (Homo sapiens, UniProt P34998).
T1 sequence (P34998 24-415): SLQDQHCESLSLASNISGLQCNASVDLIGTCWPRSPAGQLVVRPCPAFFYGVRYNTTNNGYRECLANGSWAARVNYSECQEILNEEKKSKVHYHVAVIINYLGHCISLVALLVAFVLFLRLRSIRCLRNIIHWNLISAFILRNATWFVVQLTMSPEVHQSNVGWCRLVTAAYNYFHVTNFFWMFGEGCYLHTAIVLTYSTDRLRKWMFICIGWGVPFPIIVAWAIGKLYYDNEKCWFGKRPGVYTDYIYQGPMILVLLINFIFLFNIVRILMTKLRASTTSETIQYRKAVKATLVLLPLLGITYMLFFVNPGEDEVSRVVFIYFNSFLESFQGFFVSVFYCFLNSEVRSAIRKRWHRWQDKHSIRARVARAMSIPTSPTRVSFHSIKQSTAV
Briefly: CRF1R agonist activity (EC50, Emax), called comparative CRF binding. It is filed as cell-based. From the text:
(§1) The pharmacological activity and selectivity of the peptides of present invention can be determined using published test procedures. See, e.g, U.S. patent application Ser. No. 09/799,978. Because CRF2R and CRF1R are homologous proteins, it is expected that a certain proportion of agonists for CRF2R will also function as agonists of CRF1R. As discussed above, activation of CRF1R induces activation of the HPA axis since increased corticosteroid production leads to skeletal muscle atrophy. In most cases in which an increase in muscle mass or function is desired, it is not desirable to activate the HPA axis.
(§2) Because it is desirable to discriminate binding between CRF2R, as compared with CRF1R, the assays described above may be conducted using a cell, or membrane from a cell, which expresses only CRF2R or the assays can be conducted with a recombinant source of CRF2R. Cells expressing both forms of CRFR may be modified using homologous recombination to inactivate or otherwise disable the CRF1R gene. Alternatively, if the source of CRFR contains more than one CRFR type, the background signal produced by the receptor which is not of interest must be subtracted from the signal obtained in the assay. […] Known antagonists of CRFRs include, but, are not limited to, antalarmin (CRF1R selective), antisauvagine-30 (CRF2R selective) and astressin (nonselective for CRF1R/CRF2R).
(§3) Cell-based assays include the steps of contacting cells which express CRF1R or CRF2R with a peptide of the present invention or control and measuring activation of the CRFR by measuring the expression or activity of components of the CRFR signal transduction pathways.
(§4) As described in the background section above, CRFRs appear to couple through several different pathways including Gαs, Gαq or Gαi, depending upon the cell type. It is thought that agonist activation of CRFR allows the receptor to signal via any of these pathways, provided that the necessary pathway components are present in the particular cell type. Thus, to assay a particular peptide of the present invention for CRFR activation, an assay can use any of the signal transduction pathways as the readout even if the relevant cell type for treatment, in vivo, couples CRFR to skeletal muscle atrophy via a different pathway. […] Assays for measuring activation of these signaling pathways are known in the art.
(§5) For example, after contact with a peptide of the present invention, lysates of the cells can be prepared and assayed for induction of cAMP. cAMP is induced in response to Gαs activation. Because Gαs is activated by receptors other than CRFR and because a test peptide may be exerting its effect through CRFRs or by another mechanism, two control comparisons are relevant for determining whether the peptide increases levels of cAMP via activation of a CRFR. One control compares the cAMP level of cells contacted with the peptide and the cAMP level of cells contacted with a control compound (i.e., the vehicle in which the peptide is dissolved).
(§6) In one example, cAMP induction is measured with the use of DNA constructs containing the cAMP responsive element linked to any of a variety of reporter genes can be introduced into cells expressing CRFRs. Such reporter genes include, but are not limited to, chloramphenicol acetyltransferase (CAT), luciferase, glucuronide synthetase, growth hormone, fluorescent proteins (e.g., Green Fluorescent Protein), or alkaline phosphatase. Following exposure of the cells to the peptide, the level of reporter gene expression can be quantitated to determine the peptide's ability to increase cAMP levels and thus determine the peptide's ability to activate the CRFR.
(§7) In addition to using cells expressing full length CRFRs, cells can be engineered which express CRFRs containing the ligand binding domain of the receptor coupled to, or physically modified to contain, reporter elements or to interact with signaling proteins.

A further assay has as its target T2, CRF2R (Homo sapiens, UniProt Q13324).
T2 sequence (Q13324 1-411): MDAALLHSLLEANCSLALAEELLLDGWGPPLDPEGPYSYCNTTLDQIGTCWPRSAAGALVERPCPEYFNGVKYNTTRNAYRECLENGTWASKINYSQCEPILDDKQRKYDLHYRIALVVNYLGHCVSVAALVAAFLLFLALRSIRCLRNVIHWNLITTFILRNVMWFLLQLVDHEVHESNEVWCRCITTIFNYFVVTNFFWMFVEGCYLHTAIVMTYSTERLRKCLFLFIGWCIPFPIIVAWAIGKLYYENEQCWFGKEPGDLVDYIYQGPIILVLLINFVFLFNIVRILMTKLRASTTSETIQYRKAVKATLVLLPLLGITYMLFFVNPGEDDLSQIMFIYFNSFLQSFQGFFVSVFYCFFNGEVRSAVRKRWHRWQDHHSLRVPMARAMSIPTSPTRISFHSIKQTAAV
Briefly: CRF2R agonist activity (EC50, Emax), called comparative CRF binding. It is filed as cell-based.
Text: as §1, §2, §3, §4, §5, §6, §7

Molecules are shown by their SMILES. Read-outs that look alike come from different tables or passages of the source. Where only a bound is given, the exact number is not on record here.

For `CC[C@H](C)[C@H](NC(=O)[C@@H](NC(=O)[C@H](C)NC(=O)[C@H](CC(C)C)NC(=O)[C@H](CC(C)C)NC(=O)[C@H](CC(C)C)NC(=O)[C@H](C)NC(=O)[C@H](CC(N)=O)NC(=O)[C@H](CC(N)=O)NC(=O)[C@H](C)NC(=O)[C@H](C)NC(=O)[C@H](CCC(N)=O)NC(=O)[C@H](CCC(N)=O)NC(=O)[C@H](CCCCN)NC(=O)[C@H](CCC(=O)O)NC(=O)[C@H](CCCCN)NC(=O)[C@H](CCC(=O)O)NC(=O)[C@H](CCC(N)=O)NC(=O)[C@H](CCCCN)NC(=O)[C@H](CCC(=O)O)NC(=O)[C@@H](NC(=O)[C@H](CCC(=O)O)NC(=O)[C@@H](NC(=O)[C@H](CCSC)NC(=O)[C@H](CCCCN)NC(=O)[C@H](CCCNC(=N)N)NC(=O)[C@H](CC(C)C)NC(=O)[C@H](CC(C)C)NC(=O)[C@H](CCC(=O)O)NC(=O)[C@H](CC(C)C)NC(=O)[C@H](CO)NC(=O)[C@H](CC(C)C)NC(=O)[C@H](CC(=O)O)NC(=O)[C@@H](NC(=O)[C@H](CO)NC(=O)[C@@H](NC(=O)[C@@H]1CCCN1C(=O)[C@@H]1CCCN1C(=O)CNC(=O)[C@@H]1CCC(=O)N1)[C@@H](C)CC)[C@@H](C)CC)[C@@H](C)CC)[C@@H](C)CC)[C@@H](C)O)C(N)=O` [compound 30], the EC50 at CRF1R was found to be 100 nM; at CRF2R, 18.7 nM.
In the case of `CC[C@H](C)[C@H](NC(=O)[C@@H](NC(=O)[C@H](CC(=O)O)NC(=O)[C@H](CC(C)C)NC(=O)[C@H](CC(C)C)NC(=O)[C@H](CC(C)C)NC(=O)[C@H](CCCNC(=N)N)NC(=O)[C@H](CC(N)=O)NC(=O)[C@H](CC(N)=O)NC(=O)[C@H](C)NC(=O)[C@H](C)NC(=O)[C@H](CCC(N)=O)NC(=O)[C@H](CCC(N)=O)NC(=O)[C@H](CCCCN)NC(=O)[C@H](CCC(=O)O)NC(=O)[C@H](CCCCN)NC(=O)[C@H](CCC(=O)O)NC(=O)[C@H](CCC(N)=O)NC(=O)[C@H](CCCCN)NC(=O)[C@H](CCC(=O)O)NC(=O)[C@@H](NC(=O)[C@H](CCC(=O)O)NC(=O)[C@@H](NC(=O)[C@H](CCSC)NC(=O)[C@H](CCCCN)NC(=O)[C@H](CCCNC(=N)N)NC(=O)[C@H](CC(C)C)NC(=O)[C@H](CC(C)C)NC(=O)[C@H](Cc1ccc(O)cc1)NC(=O)[C@H](C)NC(=O)[C@@H]1CCCN1C(=O)[C@H](CC(C)C)NC(=O)[C@H](CC(=O)O)NC(=O)[C@@H](NC(=O)[C@H](CO)NC(=O)[C@@H](NC(=O)[C@@H]1CCCN1C(=O)[C@@H]1CCCN1C(=O)CNC(=O)[C@@H]1CCC(=O)N1)[C@@H](C)CC)[C@@H](C)CC)[C@@H](C)CC)[C@@H](C)CC)[C@@H](C)O)C(N)=O` [compound 32], the EC50 worked out at 606 nM at CRF1R (read-out: CRF1R EC50) and 20.2 nM at CRF2R (read-out: CRF2R EC50).
With `CC[C@H](C)[C@H](NC(=O)[C@@H](NC(=O)[C@H](CC(=O)O)NC(=O)[C@H](CC(C)C)NC(=O)[C@H](CC(C)C)NC(=O)[C@H](CC(C)C)NC(=O)[C@H](CCCNC(=N)N)NC(=O)[C@H](CC(N)=O)NC(=O)[C@H](CC(N)=O)NC(=O)[C@H](C)NC(=O)[C@H](C)NC(=O)[C@H](CCC(N)=O)NC(=O)[C@H](CCC(N)=O)NC(=O)[C@H](CCCCN)NC(=O)[C@H](CCC(=O)O)NC(=O)[C@H](CCCCN)NC(=O)[C@H](CCC(=O)O)NC(=O)[C@H](CCC(N)=O)NC(=O)[C@H](CCCCN)NC(=O)[C@H](CCC(=O)O)NC(=O)[C@@H](NC(=O)[C@H](CCC(=O)O)NC(=O)[C@@H](NC(=O)[C@H](CCSC)NC(=O)[C@H](CCCCN)NC(=O)[C@H](CCCNC(=N)N)NC(=O)[C@H](CC(C)C)NC(=O)[C@H](CC(C)C)NC(=O)[C@H](CC(C)C)NC(=O)[C@@H](NC(=O)[C@@H]1CCCN1C(=O)[C@H](CC(C)C)NC(=O)[C@H](CC(=O)O)NC(=O)[C@@H](NC(=O)[C@H](CO)NC(=O)[C@@H](NC(=O)[C@@H]1CCCN1C(=O)[C@@H]1CCCN1C(=O)CNC(=O)[C@@H]1CCC(=O)N1)[C@@H](C)CC)[C@@H](C)CC)[C@@H](C)CC)[C@@H](C)CC)[C@@H](C)CC)[C@@H](C)O)C(N)=O` [compound 35], the EC50 at CRF1R (read-out: CRF1R EC50) was over 1000 nM; at CRF2R (read-out: CRF2R EC50), 15.6 nM.
For the compound `CC[C@H](C)[C@H](NC(=O)[C@@H](NC(=O)[C@H](CC(=O)O)NC(=O)[C@H](CC(C)C)NC(=O)[C@H](CC(C)C)NC(=O)[C@H](CC(C)C)NC(=O)[C@H](CCCNC(=N)N)NC(=O)[C@H](CC(N)=O)NC(=O)[C@H](CC(N)=O)NC(=O)[C@H](C)NC(=O)[C@H](C)NC(=O)[C@H](CCC(N)=O)NC(=O)[C@H](CCC(N)=O)NC(=O)[C@H](CCCCN)NC(=O)[C@H](CCC(=O)O)NC(=O)[C@H](CCCCN)NC(=O)[C@H](CCC(=O)O)NC(=O)[C@H](CCC(N)=O)NC(=O)[C@H](CCCCN)NC(=O)[C@H](CCC(=O)O)NC(=O)[C@@H](NC(=O)[C@H](CCC(=O)O)NC(=O)[C@@H](NC(=O)[C@H](CCSC)NC(=O)[C@H](CCCCN)NC(=O)[C@H](CCCNC(=N)N)NC(=O)[C@H](CC(C)C)NC(=O)[C@H](CC(C)C)NC(=O)[C@@H](NC(=O)[C@@H](NC(=O)[C@@H]1CCCN1C(=O)[C@H](CC(C)C)NC(=O)[C@H](CC(=O)O)NC(=O)[C@@H](NC(=O)[C@H](CO)NC(=O)[C@@H](NC(=O)[C@@H]1CCCN1C(=O)[C@@H]1CCCN1C(=O)CNC(=O)[C@@H]1CCC(=O)N1)[C@@H](C)CC)[C@@H](C)CC)[C@@H](C)CC)[C@@H](C)CC)[C@@H](C)CC)[C@@H](C)CC)[C@@H](C)O)C(N)=O` [compound 36], the EC50 at CRF1R (read-out: CRF1R EC50) is over 1000 nM; at CRF2R (read-out: CRF2R EC50), 14.8 nM.
Consider `CC[C@H](C)[C@H](NC(=O)[C@@H](NC(=O)[C@H](CC(=O)O)NC(=O)[C@H](CC(C)C)NC(=O)[C@H](CC(C)C)NC(=O)[C@H](CC(C)C)NC(=O)[C@H](CCCNC(=N)N)NC(=O)[C@H](CC(N)=O)NC(=O)[C@H](CC(N)=O)NC(=O)[C@H](C)NC(=O)[C@H](C)NC(=O)[C@H](CCC(N)=O)NC(=O)[C@H](CCC(N)=O)NC(=O)[C@H](CCCCN)NC(=O)[C@H](CCC(=O)O)NC(=O)[C@H](CCCCN)NC(=O)[C@H](CCC(=O)O)NC(=O)[C@H](CCC(N)=O)NC(=O)[C@H](CCCCN)NC(=O)[C@H](CCC(=O)O)NC(=O)[C@@H](NC(=O)[C@H](CCC(=O)O)NC(=O)[C@@H](NC(=O)[C@H](CCSC)NC(=O)[C@H](CCCCN)NC(=O)[C@H](CCCNC(=N)N)NC(=O)[C@H](CC(C)C)NC(=O)[C@H](CC(C)C)NC(=O)[C@H](Cc1ccc(O)cc1)NC(=O)[C@@H](NC(=O)[C@@H]1CCCN1C(=O)[C@H](CC(C)C)NC(=O)[C@H](CC(=O)O)NC(=O)[C@@H](NC(=O)[C@H](CO)NC(=O)[C@@H](NC(=O)[C@@H]1CCCN1C(=O)[C@@H]1CCCN1C(=O)CNC(=O)[C@@H]1CCC(=O)N1)[C@@H](C)CC)[C@@H](C)CC)C(C)C)[C@@H](C)CC)[C@@H](C)CC)[C@@H](C)O)C(N)=O` [compound 39], for which the EC50 at CRF1R is at least 1000 nM; at CRF2R, 58.2 nM.

The EC50 is the concentration giving half of the maximal effect.
